High-throughput results deposited in PubChem by National Center for Advancing Translational Sciences (NCATS).
Abeta rescue: A-beta toxicity reversal in yeast | Potency, µM (series often up to 46.1 µM), actives largely listed as activators | yeast expressing A-beta42, growth rescue, OD600, 48 h; response scale: 0% DMSO, 100% iron-clioquinol control | AID 1347071 | actives 0.063% (n = 410,000); note: nearly all actives have a fitted effect of over 55% in size
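Growth rescue measured by 600 nm absorbance after 48 h yeast culture at 30 C with compound. Values normalized between DMSO and an equimolar ferric chloride plus clioquinol control.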
aSyn yeast inh: alpha-synuclein toxicity inhibition in yeast. Yeast expressing alpha-synuclein, growth rescue, BacTiter-Glo, 24 h. Potency, µM (highest dose often 46.1 µM), without a hit: at the top dose growth rescue (activation), most hits filed as activators. actives 0.14% (n = 370,000); note: % of control where 0% means no effect; nearly all actives have a fitted effect of over 65% in size
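Screening used galactose-induced yeast with toxic alpha-synuclein levels, exposed to compound for 24 hr at 30 deg C. Cell growth, read with BacTiter-Glo luminescence, gave the measured signal.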
TDP43 rescue: rescues yeast growth from TDP-43 toxicity. TDP-43 expressing yeast growth rescue, BacTiter-Glo, 24 h. Potency, µM (titrated, usually from 46.1 µM), for inactives: at the highest dose growth rescue (activation), actives largely listed as activators. actives 1.8% (n = 410,000); note: % of control where 0% means no effect; nearly all actives have a fitted effect of over 50% in size
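Luminescence from BacTiter-Glo reports growth of TDP-43-expressing yeast after 24 hr at 30 deg C with compound. Cells were raffinose-pregrown to mid-log, then seeded in galactose medium at OD600=0.02.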
Rango complex inh: prevents formation of the Rango-importin beta complex; Rango CFP/YFP FRET sensor + importin beta, 45 min; Potency, µM (doses to about 92.2 µM), inactives show at the highest dose inhibition of complex formation; Q14974; actives 0.031% (n = 340,000); AID 540263; calls by dose curve;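 note: 0% = DMSO wells and 100% = buffer wells lacking importin beta; nearly all actives have a fitted effect of over 15% in size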
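Inhibition scored from the CFP 486 nm/YFP 530 nm FRET ratio 45 min after adding 0.125 microM importin beta to 50 nM Rango biosensor preincubated 5 min with compound (room temperature, PBS with DTT, Tween-20, BSA). No-importin wells as positive control.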
S-ASM inh: human S-ASM enzyme inhibition. AID 504937. actives 0.006% (n = 340,000). placental ASM, HMU-PC fluorogenic substrate, 60 min. Potency, µM (series often up to 57.5 µM), for the others: at the top dose activity change, negative = inhibition, usual class: inhibitors
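Human placenta-derived ASM preincubated with compound 10 min at room temperature, then reacted with 9 uM (final) fluorogenic HMU-PC substrate for 60 min at 37 C. Stop solution raises pH to 10; fluorescence read at Ex 386/Em 447 nm.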
Rango dissoc inh: inhibition of RanGTP-driven Rango-importin beta dissociation; Biochemical FRET Rango-importin beta, RanGTP-induced dissociation; Potency, µM (titrated, usually from 46.1 µM), for the others: at the top dose activity change, negative = inhibition; actives 0.071% (n = 340,000); calls by dose curve; note: % of control where 0% means no effect; nearly all actives have a fitted effect of over 45% in size
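Rango FRET biosensor (snurportin-1 IBB flanked by N-terminal EYFP and C-terminal CFP10) at 0.1 uM, with 0.25 uM importin beta in PBS, 1mM DTT, 0.02% Tween-20, 0.1% BSA. 0.6 uM Ran, 2mM GTP and 0.2 uM RCC1 were then added for 45 min at room temperature. Inhibition read as loss of FRET rise.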
* = called active by the depositor; i = inactive; ? = inconclusive; . = no result; [ ] = another dose, or the depositor's remark. Compounds with a hit are over-represented: about 2% of the library has one in this group of screens. Unless noted, calls come from the whole dose curve; as a rule, active = well fitted curve in the direction sought with a large enough effect; inconclusive = small, poorly fitted or top-dose-only effect, or another doubt; inactive = no such curve, though single readings can be large; an effect the other way counts as inactive or inconclusive. Potency is the fitted concentration of half-maximal effect.

Short keys – A = Abeta rescue; B = aSyn yeast inh; C = TDP43 rescue; D = Rango complex inh; E = S-ASM inh; F = Rango dissoc inh
[1] CCOC(=O)c1nnc(-c2ccccc2)nc1NCc1ccc(Cl)cc1
  A = i	B = 2%	C = 13µM*	D = -4%	E = -20%	F = 28%
[2] CCOC(=O)c1nnc(-c2ccccc2)nc1Sc1c(Cl)cccc1Cl
  A = i[9.22 µM]	B = 16%	C = -5%	D = 1%	E = -14%	F = 2%
[3] CN1CCN(CCCNC(=O)c2cc3c(-c4ccc(Cl)cc4)nn(C)c3s2)CC1
  A = i	B = 4%	C = -8%	D = 0%	E = -1%	F = -29%
[4] Cn1nc(-c2ccc(Cl)cc2)c2cc(C(=O)NCC3CCCO3)sc21 (stereo not given)
  A = i	B = ?	C = 22µM*	D = -4%	E = -22%	F = 21%
[5] CC1(C(=O)Nc2ccc(Cl)c(Cl)c2)CCN1Cc1ccccc1OC(F)F (stereo not given)
  A = i	B = -36%	C = 22µM*	D = .	E = .	F = .
[6] Cc1ccc(C)c(S(=O)(=O)N2C(=S)NC(=O)C2CC(C)C)c1 (stereo not given)
  A = i	B = ?	C = 25µM*	D = -2%	E = -3%	F = -19%
[7] O=C(c1ccccc1Cl)N1CCCCC1CCN1CCCCC1 (stereo not given)
  A = i	B = .	C = 10%	D = .	E = .	F = .
[8] CC1CCc2c(c3ccccc3n2C(=O)CCl)C1 (stereo not given)
  A = i	B = -13%	C = 2.8µM*	D = -3%	E = -14%	F = -7%
[9] CCN1CCN(CC(=O)n2c3c(c4ccccc42)CC(C)CC3)CC1 (stereo not given)
  A = i	B = -5%	C = -11%	D = ?	E = -1%	F = ?
[10] CCc1ccc(-n2nc(CO)c(C(=O)NC(C)c3ccc(Cl)cc3)n2)cc1 (stereo not given)
  A = i	B = .	C = 6%	D = .	E = .	F = .
[11] Cc1cccc(C(=O)NC(=S)NNC(=O)c2ccccc2Cl)c1
  A = ?	B = 10µM*	C = -40%	D = -1%	E = -1%	F = 1%
[12] Cc1cccc(C(=O)NC(=S)NNC(=O)Cc2ccccc2)c1
  A = i	B = -21%	C = -71%	D = 0%	E = 0%	F = 3%
[13] COc1cc(C(=O)NNC(=S)NC(=O)c2ccccc2C)cc(OC)c1OC
  A = ?	B = -1%	C = ?	D = 6%	E = 5%	F = 17%
[14] Cc1ccccc1C(=O)NNC(=S)NC(=O)c1ccc(Cl)cc1Cl
  A = ?	B = 1.6µM*	C = 10µM*	D = 4%	E = -3%	F = 22%
[15] COc1ccccc1C(=O)NNC(=S)NC(=O)c1cc(OC)c(OC)c(OC)c1
  A = 6.3µM*	B = ?	C = 10µM*	D = 1%	E = -4%	F = 3%
[16] Fc1ccc(-c2noc3ncnc(NCC4CCN(Cc5ccc(Cl)cc5)CC4)c23)cc1
  A = i	B = .	C = -7%	D = .	E = .	F = .
[17] CN(C(=O)c1cc2c(s1)-c1ccc(Cl)cc1SC2)c1cccc(C(F)(F)F)c1
  A = i	B = .	C = 26%	D = .	E = .	F = .
[18] CCOC(=O)c1ccc(N2C(=O)c3n[nH]c(-c4ccco4)c3C2c2cccc([N+](=O)[O-])c2)cc1 (stereo not given)
  A = i	B = -1%	C = -17%	D = -3%	E = 28µM*	F = 11%
[19] CCOC(=O)c1ccc(-c2ccc(C=O)o2)cc1
  A = i	B = -36%	C = 11µM*	D = ?	E = 316%	F = -7%
[20] CCCOC(=O)c1ccc(-c2ccc(C=O)o2)cc1
  A = i	B = -23%	C = -19%	D = -2%	E = 0%	F = 26%
[21] CC1CC(C)CN(c2nc(N(C)c3ccccc3)nc(N)c2[N+](=O)[O-])C1 (stereo not given)
  A = i	B = 16%	C = 18µM*	D = 7%	E = ?	F = 4%
[22] O=C(O)C=C1CCN(c2ncc(C(F)(F)F)cc2Cl)CC1
  A = i	B = 13%	C = 13µM*	D = -5%	E = -1%	F = ?
[23] Fc1ccc(CNc2ncnc3onc(-c4ccc(F)cc4)c23)cc1
  A = i	B = 1%	C = 13µM*	D = .	E = .	F = .
[24] Clc1ccc(-c2noc3ncnc(NCCc4ccccc4)c23)cc1
  A = i	B = -2%	C = 18µM*	D = .	E = .	F = .
[25] Cc1c(Cl)cccc1NC(=O)c1cnc2sc(N3CCOCC3)nn2c1=O
  A = i	B = .	C = -11%	D = .	E = .	F = .
[26] CCOc1ccccc1Oc1nc(C)nc2c1oc1ccccc12
  A = i	B = .	C = 0%	D = .	E = .	F = .
[27] Cc1ccc(NC(=O)C(Cc2ccccc2)N2Cc3ccccc3C2=O)cc1Cl (stereo not given)
  A = i	B = .	C = 21%	D = .	E = .	F = .
[28] Cc1ccc(-c2cc(O)cc3sc(=O)oc23)cc1C
  A = .	B = -18%	C = 11µM*	D = 1%	E = -9%	F = -3%
[29] CCc1ccccc1NC(=O)Nc1c[nH]c(=O)[nH]c1=O
  A = i	B = .	C = 14%	D = .	E = .	F = .
[30] O=C1/C(=N\S(=O)(=O)c2cccs2)C([n+]2cccc(Cc3ccccc3)c2)=C([O-])c2ccccc21
  A = i	B = 0%	C = 6%	D = 58µM*	E = -11%	F = 19%
[31] O=C(NCc1ccccn1)C1Nc2ccc(OC(F)(F)F)cc2C2C=CCC12 (stereo not given)
  A = i	B = -3%	C = 18µM*	D = 1%	E = -1%	F = -13%
[32] O=C(NCc1ccccc1)C1Nc2ccc(OC(F)(F)F)cc2C2C=CCC12 (stereo not given)
  A = ?	B = 1%	C = 22µM*	D = -2%	E = -3%	F = -9%
[33] CCN(CC)S(=O)(=O)c1cc(-c2onc(C)c2C)ccc1OC
  A = i	B = .	C = 0%	D = .	E = .	F = .
[34] CS(=O)c1ccccc1-c1nc(-c2cccc(Cl)c2)no1 (stereo not given)
  A = i	B = 7%	C = 13µM*	D = -1%	E = -3%	F = 14%
[35] CS(=O)c1ccccc1-c1nc(-c2ccc(Cl)cc2)no1 (stereo not given)
  A = i	B = 0%	C = 8%[9.22 µM]	D = 0%	E = -2%	F = -2%
[36] Cc1ccc(NC(=O)CCc2nc3cccnc3n2-c2ccccc2)cc1
  A = i	B = .	C = ?	D = .	E = .	F = .
[37] CCOc1ccc(-c2ccc(NS(=O)(=O)c3cc(C)c(C)cc3C)cc2)nn1
  A = i	B = .	C = 1%	D = .	E = .	F = .
[38] O=C(O)Cc1cc2c(s1)CCCCC2
  A = i	B = 9%	C = 13µM*	D = 3%	E = -1%	F = 1%
[39] O=C(CSC1=NNC(c2ccccn2)S1)Nc1cccc(Cl)c1 (stereo not given)
  A = 16µM*	B = 8.9µM*	C = ?	D = 0%	E = -1%	F = 1%
[40] O=C(CSc1nncn1-c1ccccn1)Nc1cccc(Cl)c1
  A = i	B = 3%	C = -6%[0.397 µM]	D = 0%	E = 0%	F = 1%
[41] O=C(CSC1=NNC(c2ccccn2)S1)Nc1ccccc1 (stereo not given)
  A = ?	B = 21%	C = 13µM*	D = 0%	E = -1%	F = 1%
[42] COc1ccc(S(=O)(=O)c2c(SC)nn(Cc3ccccc3C)c2NC(C)=O)cc1
  A = i	B = .	C = 12%	D = .	E = .	F = .
[43] COc1ccc(OC)c(C2C(C(=O)Nc3ccccc3OC)=C(C)Nc3c(C(=O)Nc4ccc(F)cc4)cnn32)c1 (stereo not given)
  A = i	B = .	C = 16%	D = .	E = .	F = .
[44] Cc1ccccc1C(=O)/C(C#N)=N/Nc1c(C)n(C)n(-c2ccccc2)c1=O
  A = i	B = 16µM*	C = 35µM*	D = ?	E = -6%	F = -28%

Some of the entries so far, screen by screen:
[30] O=C1/C(=N\S(=O)(=O)c2cccs2)C([n+]2cccc(Cc3ccccc3)c2)=C([O-])c2ccccc21
[31] O=C(NCc1ccccn1)C1Nc2ccc(OC(F)(F)F)cc2C2C=CCC12 (stereo not given)
[32] O=C(NCc1ccccc1)C1Nc2ccc(OC(F)(F)F)cc2C2C=CCC12 (stereo not given)

compound no.	30	31	32
Abeta rescue	i	i	?
aSyn yeast inh	0%	-3%	1%
TDP43 rescue	6%	18µM*	22µM*
Rango complex inh	58µM*	1%	-2%
S-ASM inh	-11%	-1%	-3%
Rango dissoc inh	19%	-13%	-9%

Results in sequence from the list:
Rango dissoc inh for entries 3 to 6: -29%, 21%, ., -19%
TDP43 rescue for entries 3 to 6: -8%, 22µM*, 22µM*, 25µM*
